Results as given in patent US20240425496A1, “AZETIDINYL PYRIMIDINES AND USES THEREOF” (Aerie Pharmaceuticals, Inc., priority 2021, published 2024).

Protein sequences, listed by entry. Tags and fused reporters are not part of them.
UniProt P29597, whole entry: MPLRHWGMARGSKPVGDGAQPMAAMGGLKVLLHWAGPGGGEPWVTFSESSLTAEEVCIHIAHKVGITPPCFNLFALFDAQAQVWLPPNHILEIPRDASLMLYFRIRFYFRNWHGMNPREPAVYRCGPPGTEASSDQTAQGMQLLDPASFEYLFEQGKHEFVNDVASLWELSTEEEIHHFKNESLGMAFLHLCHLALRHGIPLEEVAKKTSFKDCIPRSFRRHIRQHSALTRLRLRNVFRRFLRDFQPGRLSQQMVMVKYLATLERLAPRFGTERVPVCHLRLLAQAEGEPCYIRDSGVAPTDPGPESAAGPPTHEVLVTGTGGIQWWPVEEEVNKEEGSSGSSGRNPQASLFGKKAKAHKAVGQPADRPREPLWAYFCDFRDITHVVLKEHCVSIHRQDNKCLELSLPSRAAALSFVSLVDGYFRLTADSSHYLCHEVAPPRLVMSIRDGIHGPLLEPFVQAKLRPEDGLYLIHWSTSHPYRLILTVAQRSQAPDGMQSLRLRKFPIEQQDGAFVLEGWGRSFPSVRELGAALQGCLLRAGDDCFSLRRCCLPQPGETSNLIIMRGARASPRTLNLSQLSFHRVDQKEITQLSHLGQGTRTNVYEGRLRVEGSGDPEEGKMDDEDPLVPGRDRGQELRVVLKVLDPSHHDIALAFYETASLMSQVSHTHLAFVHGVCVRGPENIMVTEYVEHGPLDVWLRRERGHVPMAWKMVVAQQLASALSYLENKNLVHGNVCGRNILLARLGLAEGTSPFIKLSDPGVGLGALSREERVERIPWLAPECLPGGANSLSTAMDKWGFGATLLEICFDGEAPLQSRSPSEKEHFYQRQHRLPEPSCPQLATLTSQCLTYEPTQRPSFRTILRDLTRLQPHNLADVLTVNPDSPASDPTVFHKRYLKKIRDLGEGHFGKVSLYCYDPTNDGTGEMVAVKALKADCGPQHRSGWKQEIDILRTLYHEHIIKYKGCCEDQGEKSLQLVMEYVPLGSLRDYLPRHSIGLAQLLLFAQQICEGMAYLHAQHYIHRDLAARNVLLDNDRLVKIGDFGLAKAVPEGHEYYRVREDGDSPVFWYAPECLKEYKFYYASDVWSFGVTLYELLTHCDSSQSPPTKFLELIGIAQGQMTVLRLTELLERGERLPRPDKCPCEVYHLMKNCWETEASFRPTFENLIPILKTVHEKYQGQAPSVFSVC
UniProt P23458, whole entry: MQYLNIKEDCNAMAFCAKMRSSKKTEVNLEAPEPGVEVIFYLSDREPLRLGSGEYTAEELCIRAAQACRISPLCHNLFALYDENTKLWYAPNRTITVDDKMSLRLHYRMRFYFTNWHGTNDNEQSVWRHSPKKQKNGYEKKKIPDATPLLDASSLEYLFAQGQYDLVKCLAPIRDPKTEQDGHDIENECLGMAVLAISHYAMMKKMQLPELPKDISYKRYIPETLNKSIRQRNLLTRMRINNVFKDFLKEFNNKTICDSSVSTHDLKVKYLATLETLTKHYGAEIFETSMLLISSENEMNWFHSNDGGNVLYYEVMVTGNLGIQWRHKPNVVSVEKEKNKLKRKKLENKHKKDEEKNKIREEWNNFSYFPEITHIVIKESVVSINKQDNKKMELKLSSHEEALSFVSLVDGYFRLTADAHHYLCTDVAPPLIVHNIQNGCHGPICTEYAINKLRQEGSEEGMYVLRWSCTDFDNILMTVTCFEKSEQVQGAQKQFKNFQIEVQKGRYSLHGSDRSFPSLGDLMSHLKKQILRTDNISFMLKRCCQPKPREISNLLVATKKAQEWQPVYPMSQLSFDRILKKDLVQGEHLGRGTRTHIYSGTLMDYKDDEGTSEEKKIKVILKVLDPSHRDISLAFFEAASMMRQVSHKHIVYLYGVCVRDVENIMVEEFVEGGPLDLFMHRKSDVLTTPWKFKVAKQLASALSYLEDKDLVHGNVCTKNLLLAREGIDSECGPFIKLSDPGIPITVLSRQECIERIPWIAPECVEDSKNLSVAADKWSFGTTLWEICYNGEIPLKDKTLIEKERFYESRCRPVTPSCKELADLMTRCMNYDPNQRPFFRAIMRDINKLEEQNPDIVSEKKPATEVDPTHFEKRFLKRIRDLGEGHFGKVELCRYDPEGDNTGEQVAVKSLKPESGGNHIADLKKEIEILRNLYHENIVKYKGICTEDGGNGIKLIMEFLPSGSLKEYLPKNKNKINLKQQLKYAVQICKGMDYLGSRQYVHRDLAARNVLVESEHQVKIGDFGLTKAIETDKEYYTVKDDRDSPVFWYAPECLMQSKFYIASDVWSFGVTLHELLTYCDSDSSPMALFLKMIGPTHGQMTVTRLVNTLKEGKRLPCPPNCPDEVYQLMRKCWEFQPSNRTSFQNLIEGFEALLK

Assays:
TYK2 = TYK2 (Homo sapiens (Human), UniProt P29597); experiment: JAK kinase assay (KINASE-GLO luminescent), TYK2 enzyme; format: biochemical; conditions: read-out: IC50 TYK2; TYK2 enzyme 10 nM, Abl peptide substrate
JAK1 = JAK1 (Homo sapiens (Human), UniProt P23458); experiment: JAK kinase assay (KINASE-GLO luminescent), JAK1 enzyme; format: biochemical; conditions: read-out: IC50 JAK1; JAK1 enzyme 10 nM, Abl peptide substrate

IC50 (TYK2) [µM]	IC50 (JAK1) [µM]	Compound
< 0.02	< 0.01	Cc1cnc(Nc2cnn(C)c2)nc1N1CC(CC#N)(N2CCN3CC4(CC4)C[C@H]3C2)C1
< 0.05	< 0.1	Cc1cnc(Nc2ccccc2)nc1N1CC(CC#N)(N2CCN(C)CC2)C1
